Target: GFP-β-DGNLS fusion protein
Experiment: AlphaScreen or HTRF; ALPHAScreen; His6-tagged GFP-β-DG-NLS at a fixed amount per well with increasing GST-ezrin, GST-IMPα2/β1 or GST alone (0-60 nM); nickel chelate acceptor beads and streptavidin donor beads; room temperature; apparent dissociation constants from sigmoidal fits

Kd: 0.98 nM
Substance: GST-tagged predimerized IMPα2/β1 heterodimer (from UniProt P52293 1-529; P70168 1-876) (complex)
